Source: patent US8507562B2, “Synthesis of (1)-beta-elemene, (-)-beta-elemenal, (-)-beta-elemenol, (-)-beta-elemene fluoride and their analogues, intermediates, and composition and uses thereof” (HYWE Pharmaceuticals, Inc., priority 2004, dated 2013)

System: Colon Cancer Cells HCT-15
Test: MTS cell viability assay
Settings: HCT-15, 4 hr; combinations with Elemene 160 μg/ml, n = 8

O=c1[nH]cc(F)c(=O)[nH]1 [Lr 5-Fu]
IC50: 93.0 ± 9.11 µg/mL
